Apparent affinities of Ab-14 variants for a coronavirus HR2 peptide

The target is the same throughout: PDVDLGDISGINAS, from the HR2 region of SARS-CoV-2 spike.

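The parent was found by panning a naive human phage display library on the peptide. The variants were designed computationally from a first round of random CDR variants and then made and measured. Their group label is 14H_En_Gibbs (En: ensemble of fine-tuned language models; Gibbs: Gibbs sampling). The scFvs were displayed on barcoded MATa yeast, the peptide on MATalpha yeast. Binding brings cells together so that they mate, and sequencing counts the barcode pairs among the diploids. Read counts were normalised to the haploid input and turned into Kd by a linear fit to BCL2-family pairs of known affinity, for each replicate. Mating was done six times.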

Each scFv is VH, three GGGGS repeats, VL, as in the parent Ab-14, and differs from it in the CDRs of the heavy chain only.
VH: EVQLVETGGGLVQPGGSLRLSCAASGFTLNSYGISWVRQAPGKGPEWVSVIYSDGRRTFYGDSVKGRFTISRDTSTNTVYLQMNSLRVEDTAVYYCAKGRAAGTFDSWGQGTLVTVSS
VL: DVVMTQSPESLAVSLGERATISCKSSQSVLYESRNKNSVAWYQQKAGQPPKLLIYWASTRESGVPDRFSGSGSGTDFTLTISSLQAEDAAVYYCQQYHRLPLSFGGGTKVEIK

Sequences are complete VH domains.
Scale: log10 of Kd in nM, estimated from mating counts; low values are strong binders.
A pair that was not seen in that replicate is written "n.d."; this usually means weak binding, but a binder can also be missed.

VH,log10 Kd (nM) by replicate,signal with controls
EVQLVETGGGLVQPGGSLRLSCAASGMSLDEYGISWVRQAPGKGPEWVSVIYADGMRSAYSDKVKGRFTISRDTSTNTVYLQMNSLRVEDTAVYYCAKGHVDEYAYVWGQGTLVTVSS,n.d. n.d. n.d. n.d. n.d. n.d.,0/18
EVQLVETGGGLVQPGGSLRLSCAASGFNLLEYGISWVRQAPGKGPEWVSVIYADGRRTFYTDSFKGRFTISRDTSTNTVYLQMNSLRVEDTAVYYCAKGGLGKDLTDWGQGTLVTVSS,n.d. n.d. n.d. n.d. n.d. n.d.,0/18
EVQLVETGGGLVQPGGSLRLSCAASGYDLQDYGISWVRQAPGKGPEWVSVIYADGVRAFYHDSFKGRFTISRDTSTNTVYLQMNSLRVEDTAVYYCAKGQLAGTFLLWGQGTLVTVSS,n.d. n.d. n.d. n.d. n.d. 1.82,0/18
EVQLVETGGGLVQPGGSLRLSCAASGFQIDEYGISWVRQAPGKGPEWVSVIYADGQRSAYSENVKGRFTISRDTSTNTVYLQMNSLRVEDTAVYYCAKGQHGGMTVAWGQGTLVTVSS,n.d. n.d. n.d. n.d. n.d. n.d.,0/18
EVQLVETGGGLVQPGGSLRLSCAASGFQIDEYGISWVRQAPGKGPEWVSVIYADGQRASYAADVKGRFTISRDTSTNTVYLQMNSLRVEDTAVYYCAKGSYDSDIIIWGQGTLVTVSS,n.d. n.d. n.d. n.d. n.d. n.d.,0/18
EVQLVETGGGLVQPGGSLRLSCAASGFALNEYGISWVRQAPGKGPEWVSVIYADGFRKAYINSVKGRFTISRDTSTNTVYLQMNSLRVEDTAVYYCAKGVLNMDVNVWGQGTLVTVSS,n.d. n.d. n.d. n.d. n.d. n.d.,0/18
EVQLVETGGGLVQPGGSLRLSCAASGVDLDEYGISWVRQAPGKGPEWVSVIYADGHRRYYAANVKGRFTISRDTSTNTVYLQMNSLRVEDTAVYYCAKGVNIDGFDLWGQGTLVTVSS,n.d. n.d. n.d. n.d. 1.82 n.d.,0/18
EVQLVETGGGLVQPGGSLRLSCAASGFDLGEYGISWVRQAPGKGPEWVSVIYADGQRFAYAQEFKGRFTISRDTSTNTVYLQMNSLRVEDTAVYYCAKGEAGGAFDLWGQGTLVTVSS,n.d. n.d. n.d. n.d. n.d. n.d.,0/18
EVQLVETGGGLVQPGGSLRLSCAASGFDLDEYGISWVRQAPGKGPEWVSVIYADGRRTAYSGAFKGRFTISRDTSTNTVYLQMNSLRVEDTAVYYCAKGNLQYGFMVWGQGTLVTVSS,1.81 1.04 2.83 2.00 1.10 1.72,0/18
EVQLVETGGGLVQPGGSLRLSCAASGFDLNEYGISWVRQAPGKGPEWVSVIYADGIRTAYESNVKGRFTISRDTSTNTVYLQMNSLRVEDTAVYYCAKGRNIINVLFWGQGTLVTVSS,0.47 -0.46 -0.44 -0.32 0.18 -0.39,1/18 (2.64)
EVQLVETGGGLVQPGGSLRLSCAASGFNLDEYGISWVRQAPGKGPEWVSVIYADGMRNSYRDKVKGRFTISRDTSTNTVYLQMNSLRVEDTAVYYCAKGAHSFDLKTWGQGTLVTVSS,n.d. n.d. n.d. n.d. n.d. n.d.,0/18
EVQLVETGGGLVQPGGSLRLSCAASGQDINEYGISWVRQAPGKGPEWVSVIYADGMRKQYAQNVKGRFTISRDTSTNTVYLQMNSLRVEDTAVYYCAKGENTFSVQIWGQGTLVTVSS,n.d. n.d. n.d. n.d. n.d. n.d.,0/18
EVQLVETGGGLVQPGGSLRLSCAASGFDVDKYGISWVRQAPGKGPEWVSVIYADGRRKFYQNQFKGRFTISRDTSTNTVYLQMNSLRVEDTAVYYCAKGGQAGTFVIWGQGTLVTVSS,n.d. 0.39 1.92 n.d. n.d. 0.95,0/18
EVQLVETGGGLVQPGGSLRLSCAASGYDLQDYGISWVRQAPGKGPEWVSVIYADGVRAFYHDSFKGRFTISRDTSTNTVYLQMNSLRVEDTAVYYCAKGQLAGIFLLWGQGTLVTVSS,n.d. n.d. n.d. n.d. n.d. n.d.,0/18

Again, the first 2 entries without any signal:

{"VH": "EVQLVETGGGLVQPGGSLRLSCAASGMSLDEYGISWVRQAPGKGPEWVSVIYADGMRSAYSDKVKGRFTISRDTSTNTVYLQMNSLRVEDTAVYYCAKGHVDEYAYVWGQGTLVTVSS", "log10 Kd (nM) by replicate": "n.d. n.d. n.d. n.d. n.d. n.d.", "signal with controls": "0/18"}
{"VH": "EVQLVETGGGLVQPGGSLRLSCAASGFNLLEYGISWVRQAPGKGPEWVSVIYADGRRTFYTDSFKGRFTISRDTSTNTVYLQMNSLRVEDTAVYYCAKGGLGKDLTDWGQGTLVTVSS", "log10 Kd (nM) by replicate": "n.d. n.d. n.d. n.d. n.d. n.d.", "signal with controls": "0/18"}

Empty control strains, which show no peptide, gave a signal in 1% of pairings with all heavy chain designs; the median was 2.08 and 95% of these signals were weaker than 0.84. No background was subtracted. Also given: how often the same scFv was detected with the empty control strains, with their mean in brackets.
In the paper, a design with two or fewer of six values counts as a poor binder.
Values of this round are not directly comparable with the first-round values of the same sequences.
Of ten entries with the parent sequence, four were seen in most replicates (averages 0.34 to 2.37), three in one and three in none, so single entries are noisy.

Reference: Li et al. 2023, doi:10.1038/s41467-023-39022-2. File: FLAb, binding data.